As usually defined, the IC50 is the midpoint of a concentration-inhibition curve. Read a high IC50 as a need for much substance.

Chains of the proteins cited; added tags and fusions are not shown. Lines headed by an entry give the natural chain unless they say otherwise; changes in a name come on top.
UniProt P48736: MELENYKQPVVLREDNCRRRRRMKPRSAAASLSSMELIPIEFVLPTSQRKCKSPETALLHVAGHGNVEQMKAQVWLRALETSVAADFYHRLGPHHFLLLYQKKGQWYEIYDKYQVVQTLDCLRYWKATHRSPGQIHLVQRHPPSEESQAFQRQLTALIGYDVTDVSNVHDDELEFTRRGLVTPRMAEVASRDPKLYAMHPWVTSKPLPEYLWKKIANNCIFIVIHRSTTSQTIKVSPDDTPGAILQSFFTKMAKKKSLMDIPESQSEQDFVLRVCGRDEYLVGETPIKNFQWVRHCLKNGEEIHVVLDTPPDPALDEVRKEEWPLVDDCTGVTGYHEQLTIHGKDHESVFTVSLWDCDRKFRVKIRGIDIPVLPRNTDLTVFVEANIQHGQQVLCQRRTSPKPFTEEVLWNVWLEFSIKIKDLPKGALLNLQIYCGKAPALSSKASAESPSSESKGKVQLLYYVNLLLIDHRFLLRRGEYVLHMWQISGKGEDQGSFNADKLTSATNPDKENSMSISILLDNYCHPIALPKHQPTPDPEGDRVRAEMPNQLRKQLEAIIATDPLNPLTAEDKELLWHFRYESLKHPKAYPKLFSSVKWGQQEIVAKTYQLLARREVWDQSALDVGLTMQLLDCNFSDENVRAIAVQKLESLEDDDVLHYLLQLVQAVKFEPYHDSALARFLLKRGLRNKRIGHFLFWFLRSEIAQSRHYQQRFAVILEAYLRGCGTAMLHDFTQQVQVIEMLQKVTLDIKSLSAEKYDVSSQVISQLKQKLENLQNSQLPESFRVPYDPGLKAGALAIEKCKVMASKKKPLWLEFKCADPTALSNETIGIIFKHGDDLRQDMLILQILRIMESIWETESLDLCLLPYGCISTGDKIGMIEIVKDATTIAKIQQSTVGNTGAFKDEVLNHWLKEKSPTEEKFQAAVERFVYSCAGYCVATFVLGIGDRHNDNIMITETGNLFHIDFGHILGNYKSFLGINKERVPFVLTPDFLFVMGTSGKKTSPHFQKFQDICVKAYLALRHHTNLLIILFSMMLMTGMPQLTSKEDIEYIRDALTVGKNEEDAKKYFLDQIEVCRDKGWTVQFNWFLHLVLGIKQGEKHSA

This assay has as its target Phosphatidylinositol 4,5-bisphosphate 3-kinase catalytic subunit gamma isoform (Homo sapiens, UniProt P48736).

In the case of `CC(C)n1nc(-c2ccc3oc(N)nc3c2)c2c(N)ncnc21` [SAPANISERTIB], the IC50 is over 200 nM.

The values above are taken from ChEMBL document CHEMBL4673190, “Recent developments in anticancer kinase inhibitors based on the pyrazolo[3,4-d]pyrimidine scaffold” (RSC Med Chem, 2020).
